From patent US10292912B2, “Personal care compositions” (Colgate-Palmolive Company, priority 2015, dated 2019)

Conditions: 2% SnF2 in water, with or without pyrophosphate salt

stannous fluoride [2% stannous fluoride solution]
appearance of solution on preparation (clear, undissolved, precipitate): shows precipitate almost immediately
